# Test results from patent US8222270B2 (Medicis Pharmaceutical Corporation, priority 2008, dated 2012).
# Experiment: Genotoxicity tests (five in vitro, three in vivo)
# Details: Ames, mouse lymphoma L5178Y, CHO and human lymphocyte chromosome aberration, SHE cell transformation, rat and hamster bone marrow cytogenetics, mouse dominant lethal
compound,measurement,value
"CC(C)Cn1cnc2c(N)nc3ccccc3c21 [imiquimod, 1-(2-methylpropyl)-1H-imidazo[4,5-c]quinolin-4-amine]",Mutagenic or clastogenic potential,no evidence of mutagenic or clastogenic potential
